In ChEMBL document CHEMBL1153857, “1,4-Diazepanes derived from (S)-serine--homopiperazines with improved sigma(1) (sigma) receptor affinity and selectivity” (Eur J Med Chem, 2009):

Assay: Selectivity for sigma 1 receptor in guinea pig brain membrane over sigma 2 receptor in rat liver membrane
Format: cell membranes

- Ratio Ki: 1.5
SMILES: OC(CCCN1CCN(c2ncc(F)cn2)CC1)c1ccc(F)cc1 (stereo unspecified) [BMY-14802]
